Values quoted from earlier work in US10724950B2, “Analysis method for interpreting Taylor dispersion data” (SARTORIUS BIOANALYTICAL INSTRUMENTS, INC., priority 2015, dated 2020).

Settings: known value used in the fitting process

For bovine serum albumin [BSA], the “Dm, analyte diffusion coefficient of monomer species” value is listed as 6.03×10^−11 m^2/s.
